Measurements: publication PMC11416981, “An investigation into the correlation between intraperitoneal teicoplanin concentrations and treatment outcomes in peritoneal dialysis-associated peritonitis” (Frontiers in Pharmacology, 2024)

Tested on: PDAP patients
Details: second ADR patient, during teicoplanin therapy; above 120 U/L; normalized after discontinuation or symptomatic treatment

For teicoplanin, the “alanine transaminase level in patient with ADR” value was 133 U/L.
